# Test results: paper PMC11259132, “Tyrosine phenol-lyase inhibitor quercetin reduces fecal phenol levels in mice” (PNAS Nexus, 2024)
# Sequences of proteins named here, by UniProt entry; tags and fusion partners are left off. Residues count along the entry.
# UniProt J7TAF3, 1-456: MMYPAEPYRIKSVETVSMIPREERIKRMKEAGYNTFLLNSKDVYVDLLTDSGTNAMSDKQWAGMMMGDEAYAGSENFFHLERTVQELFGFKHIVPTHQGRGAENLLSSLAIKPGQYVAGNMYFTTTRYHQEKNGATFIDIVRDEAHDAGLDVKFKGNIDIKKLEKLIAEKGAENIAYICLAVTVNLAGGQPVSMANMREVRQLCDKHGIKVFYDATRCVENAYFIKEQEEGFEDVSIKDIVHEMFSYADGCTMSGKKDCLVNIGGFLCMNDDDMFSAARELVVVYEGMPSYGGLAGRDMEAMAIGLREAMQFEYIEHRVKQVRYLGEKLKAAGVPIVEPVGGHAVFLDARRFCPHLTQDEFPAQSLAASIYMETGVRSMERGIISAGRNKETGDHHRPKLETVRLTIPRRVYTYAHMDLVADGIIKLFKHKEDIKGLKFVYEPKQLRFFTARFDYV
# Molecular target: T1, Tyrosine phenol-lyase (TPL) (Morganella morganii, UniProt J7TAF3)
# T1 construct: recombinant TPL from M. morganii ssp. morganii (JCM1672), pET-15b
# Type: biochemical
smiles,measurement,value
O=c1c(O)c(-c2cc(O)c(O)c(O)c2)oc2cc(O)cc(O)c12 [myricetin],"recombinant TPL assay at 500 μM inhibitor, phenol by LC-MS","structural analogs of quercetin, including taxifolin, kaempferol, luteolin, and myricetin, significantly inhibited TPL-catalyzed phenol production"
